# Values quoted from earlier work, collected in PubChem BioAssay AID977610.
# Experiments:
# Experiment in all cases: PubChem AID 977610
# [1] = biological target: GcnA-I; conditions: PDB protein-ligand complexes, literature Ki; protein: GcnA-I; PDB entry 2EPN
# [2] = biological target: beta-n-acetylhexosaminidase; conditions: PDB protein-ligand complexes, literature Ki; protein: beta-n-acetylhexosaminidase; PDB entry 1HP5
# [3] = biological target: Trichodiene synthase; conditions: PDB protein-ligand complexes, literature Ki; protein: Trichodiene synthase; PDB entry 2Q9Y
# [4] = biological target: Vacc-TMPK; conditions: PDB protein-ligand complexes, literature Ki; protein: Vacc-TMPK; PDB entry 2V54
# [5] = biological target: Fructose-bisphosphate aldolase A; conditions: PDB protein-ligand complexes, literature Ki; protein: Fructose-bisphosphate aldolase A; PDB entry 2OT1
# [6] = biological target: pol polyprotein; conditions: PDB protein-ligand complexes, literature Ki; protein: pol polyprotein; PDB entry 2AOE
# [7] = biological target: methionine aminopeptidase; conditions: PDB protein-ligand complexes, literature Ki; protein: methionine aminopeptidase; PDB entry 1YVM
# [8] = biological target: protease retropepsin(PR1); conditions: PDB protein-ligand complexes, literature Ki; protein: protease retropepsin(PR1); PDB entry 2RKG
# [9] = biological target: HIV-1 protease; conditions: PDB protein-ligand complexes, literature Ki; protein: HIV-1 protease; PDB entry 2Q5K
# [10] = biological target: hiv-1 protease; conditions: PDB protein-ligand complexes, literature Ki; protein: hiv-1 protease; PDB entry 1MUI
# [11] = biological target: protease retropepsin(PR2); conditions: PDB protein-ligand complexes, literature Ki; protein: protease retropepsin(PR2); PDB entry 2RKF
# [12] = biological target: hypoxia-inducible factor 1 alpha inhibitor; conditions: PDB protein-ligand complexes, literature Ki; protein: hypoxia-inducible factor 1 alpha inhibitor; PDB entry 1YCI
# [13] = biological target: E201Q 1-FEH IIa; conditions: PDB protein-ligand complexes, literature Ki; protein: E201Q 1-FEH IIa; PDB entry 2AEZ
# [14] = biological target: Renilla-luciferin 2-monooxygenase; conditions: PDB protein-ligand complexes, literature Ki; protein: Renilla-luciferin 2-monooxygenase; PDB entry 2PSJ
# [15] = biological target: Glutamate carboxypeptidase III; conditions: PDB protein-ligand complexes, literature Ki; protein: Glutamate carboxypeptidase III; PDB entry 3FEE
# [16] = biological target: GLUTAMATE CARBOXYPEPTIDASE 2; conditions: PDB protein-ligand complexes, literature Ki; protein: GLUTAMATE CARBOXYPEPTIDASE 2; PDB entry 2JBK
# [17] = biological target: Casein kinase II subunit alpha; conditions: PDB protein-ligand complexes, literature Ki; protein: Casein kinase II subunit alpha; PDB entry 2OXY
# [18] = biological target: human PPAR?LBD; conditions: PDB protein-ligand complexes, literature Ki; protein: human PPAR?LBD; PDB entry 2P4Y
# [19] = biological target: chymotrypsin alpha; conditions: PDB protein-ligand complexes, literature Ki; protein: chymotrypsin alpha; PDB entry 6CHA
# [20] = biological target: dipeptidyl peptidase 4; conditions: PDB protein-ligand complexes, literature Ki; protein: dipeptidyl peptidase 4; PDB entry 2AJ8
# [21] = biological target: Geranylgeranyl pyrophosphate synthetase; conditions: PDB protein-ligand complexes, literature Ki; protein: Geranylgeranyl pyrophosphate synthetase; PDB entry 2Q80
# [22] = biological target: ctp synthase; conditions: PDB protein-ligand complexes, literature Ki; protein: ctp synthase; PDB entry 2AD5
# [23] = biological target: Glutamate receptor, ionotropic kainate 1; conditions: PDB protein-ligand complexes, literature Ki; protein: Glutamate receptor, ionotropic kainate 1; PDB entry 2PBW
# [24] = biological target: Replicase polyprotein 1ab; conditions: PDB protein-ligand complexes, literature Ki; protein: Replicase polyprotein 1ab; PDB entry 2Z9G
# [25] = biological target: histamine n-methyltransferase; conditions: PDB protein-ligand complexes, literature Ki; protein: histamine n-methyltransferase; PDB entry 2AOU
# [26] = biological target: AgPNP; conditions: PDB protein-ligand complexes, literature Ki; protein: AgPNP; PDB entry 2P4S
# [27] = biological target: purine nucleoside phosphorylase; conditions: PDB protein-ligand complexes, literature Ki; protein: purine nucleoside phosphorylase; PDB entry 1N3I
# [28] = biological target: Cys-free mutant protein; conditions: PDB protein-ligand complexes, literature Ki; protein: Cys-free mutant protein; PDB entry 2J9H
# [29] = biological target: BPAO; conditions: PDB protein-ligand complexes, literature Ki; protein: BPAO; PDB entry 2PNC
# [30] = biological target: wild-type HIV-1 protease; conditions: PDB protein-ligand complexes, literature Ki; protein: wild-type HIV-1 protease; PDB entry 2QHZ
# [31] = biological target: triosephosphate isomerase; conditions: PDB protein-ligand complexes, literature Ki; protein: triosephosphate isomerase; PDB entry 6TIM
# [32] = biological target: human CK2a (hCK2?; conditions: PDB protein-ligand complexes, literature Ki; protein: human CK2a (hCK2?; PDB entry 2PVM
# [33] = biological target: 2IMA A; conditions: PDB protein-ligand complexes, literature Ki; PDB entry 2IMA
# [34] = biological target: OROTIDINE 5-PHOSPHATE DECARBOXYLASE; conditions: PDB protein-ligand complexes, literature Ki; protein: OROTIDINE 5-PHOSPHATE DECARBOXYLASE; PDB entry 1JJK
# [35] = biological target: orotidine 5'-monophosphate decarboxylase; conditions: PDB protein-ligand complexes, literature Ki, protein: orotidine 5'-monophosphate decarboxylase
# [36] = biological target: 1T5A A; conditions: PDB protein-ligand complexes, literature Ki; PDB entry 1T5A
# [37] = biological target: phosphonopyruvate hydrolase; conditions: PDB protein-ligand complexes, literature Ki; protein: phosphonopyruvate hydrolase; PDB entry 2DUA
# [38] = biological target: phosphoenolpyruvate-protein phosphotransferase; conditions: PDB protein-ligand complexes, literature Ki; protein: phosphoenolpyruvate-protein phosphotransferase; PDB entry 2HWG
# [39] = biological target: ribonuclease a; conditions: PDB protein-ligand complexes, literature Ki; protein: ribonuclease a; PDB entry 6RSA
# [40] = biological target: Tricomonas vaginalis purine nucleoside phosphorylase(TvPNP); conditions: PDB protein-ligand complexes, literature Ki; protein: Tricomonas vaginalis purine nucleoside phosphorylase(TvPNP); PDB entry 2I4T
# [41] = biological target: oligo-peptide binding protein; conditions: PDB protein-ligand complexes, literature Ki; protein: oligo-peptide binding protein; PDB entry 2RKM
# [42] = biological target: paLpxC; conditions: PDB protein-ligand complexes, literature Ki; protein: paLpxC; PDB entry 2VES
# [43] = biological target: Estrogen receptor alpha; conditions: PDB protein-ligand complexes, literature Ki; protein: Estrogen receptor alpha; PDB entry 2POG
# [44] = biological target: OleD; conditions: PDB protein-ligand complexes, literature Ki; protein: OleD; PDB entry 2IYF
# [45] = biological target: arginase 1; conditions: PDB protein-ligand complexes, literature Ki; protein: arginase 1; PDB entry 1HQG
# [46] = biological target: l-arginine glycine amidinotransferase; conditions: PDB protein-ligand complexes, literature Ki; protein: l-arginine glycine amidinotransferase; PDB entry 3JDW
# [47] = biological target: beta-lactamase; conditions: PDB protein-ligand complexes, literature Ki; protein: beta-lactamase; PDB entry 1PI5
# [48] = biological target: beta-lactamase ctx-m-9a; conditions: PDB protein-ligand complexes, literature Ki; protein: beta-lactamase ctx-m-9a; PDB entry 1YM1
# [49] = biological target: beta-lactamase tem; conditions: PDB protein-ligand complexes, literature Ki; protein: beta-lactamase tem; PDB entry 1NXY
# [50] = biological target: aminolevulinic acid dehydratase; conditions: PDB protein-ligand complexes, literature Ki; protein: aminolevulinic acid dehydratase; PDB entry 1YLV
# [51] = biological target: fructose-1,6-bisphosphatase 1; conditions: PDB protein-ligand complexes, literature Ki; protein: fructose-1,6-bisphosphatase 1; PDB entry 2FHY
# [52] = biological target: PRI50V; conditions: PDB protein-ligand complexes, literature Ki; protein: PRI50V; PDB entry 2R43
# [53] = biological target: PRI84V; conditions: PDB protein-ligand complexes, literature Ki; protein: PRI84V; PDB entry 2R3W
# [54] = biological target: Sucrose isomerase; conditions: PDB protein-ligand complexes, literature Ki; protein: Sucrose isomerase; PDB entry 2PWG
# [55] = biological target: chorismate mutase; conditions: PDB protein-ligand complexes, literature Ki; protein: chorismate mutase; PDB entry 2CSM
# [56] = biological target: NarGHI; conditions: PDB protein-ligand complexes, literature Ki; protein: NarGHI; PDB entry 1Y4Z
smiles,measurement,setting,value
CC1=N[C@@H]2[C@@H](O)[C@H](O)[C@@H](CO)O[C@@H]2S1,Ki,[1],0.06 µM
same,Ki,[2],0.28 µM
CC[N+](CC)(CC)Cc1ccccc1,Ki,[3],36 µM
Cc1cn([C@H]2C[C@H](O)[C@@H](COP(=O)(O)OP(=O)(O)O)O2)c(=O)[nH]c1=O,Ki,[4],25 µM
O=C(Nc1ccc(Cl)cc1)c1cc2ccccc2cc1OP(=O)(O)O,Ki,[5],100 µM
CCCC[C@H](NC(=O)[C@H](C)NC(=O)[C@H](CCC(=O)O)NC(=O)[C@H](Cc1ccccc1)NC[C@H](CC(C)C)NC(=O)[C@@H](NC(=O)[C@@H](N)CCCN=C(N)N)C(C)C)C(N)=O,Ki,[6],0.024 µM
c1ccc2[nH]c(-c3cscn3)nc2c1,Ki,[7],0.4 µM
Cc1cccc(C)c1OCC(=O)N[C@@H](Cc1ccccc1)[C@@H](O)C[C@H](Cc1ccccc1)NC(=O)[C@H](C(C)C)N1CCCNC1=O,Ki,[8],0.0082 µM
same,Ki,[9],5 pM
same,Ki,[10],1.3 pM
same,Ki,[11],0.00083 µM
O=C(O)C(=O)N[C@H](Cc1ccccc1)C(=O)O,Ki,[12],83 µM
OC[C@H]1O[C@@](CO)(OC[C@@]2(O[C@H]3O[C@H](CO)[C@@H](O)[C@H](O)[C@H]3O)O[C@H](CO)[C@@H](O)[C@@H]2O)[C@@H](O)[C@@H]1O,Ki,[13],3500 µM
O=C(Cc1ccc(O)cc1)Nc1ncc(-c2ccc(O)cc2)nc1Cc1ccccc1,Ki,[14],0.02 µM
N[C@@H](Cn1oc(=O)[nH]c1=O)C(=O)O,Ki,[15],0.23 µM
same,Ki,[16],0.4 µM
Brc1c(Br)c(Br)c2[nH]cnc2c1Br,Ki,[17],0.3 µM
COc1ccc2c(-c3c(C)n(Cc4cc(O[C@H](C)C(=O)O)ccc4Cl)c4cc(OC(F)(F)F)ccc34)noc2c1,Ki,[18],0.001 µM
[Al][CH2]Cc1ccccc1,Ki,[19],40 µM
Cn1c(=O)c2c(nc(N3CCNCC3)n2Cc2ccccc2)n(C)c1=O,Ki,[20],0.638 µM
CC(C)=CCC/C(C)=C/CC/C(C)=C/CC/C(C)=C/COP(=O)(O)OP(=O)(O)O,Ki,[21],25 µM
Nc1ccn([C@@H]2O[C@H](COP(=O)(O)OP(=O)(O)OP(=O)(O)O)[C@@H](O)[C@H]2O)c(=O)n1,Ki,[22],110 µM
C/C(=C/C=C/[C@@H](C)C(=O)O)[C@H]1CN[C@H](C(=O)O)[C@H]1CC(=O)O,Ki,[23],0.00556 µM
c1ccccc1,Ki,[24],0.7 µM
CCN(CC)Cc1cc(Nc2ccnc3cc(Cl)ccc23)ccc1O,Ki,[25],0.0186 µM
O=c1[nH]cnc2c(CN3C[C@H](CO)[C@@H](O)C3)c[nH]c12,Ki,[26],0.00031 µM
same,Ki,[27],0.0013 µM
CCCCCCSC[C@H](NC(=O)CC[C@H](N)C(=O)O)C(=O)NCC(=O)O,Ki,[28],410 µM
Clc1cccc(Cl)c1NC1=NCCN1,Ki,[29],466 µM
C/C(=C\C(=O)N[C@@H](Cc1ccccc1)[C@H](O)CN(Cc1cccs1)S(=O)(=O)c1cc(F)c(F)cc1F)C(F)(F)F,Ki,[30],0.053 µM
O=P(O)(O)OC[C@@H](O)CO,Ki,[31],610 µM
N#Cc1cnn2c(NCCc3cnc[nH]3)nc(Nc3ccccc3)nc12,Ki,[32],0.36 µM
O=C(/C=C/c1ccc(Cl)cc1Cl)NO,Ki,[33],0.3 µM
O=c1cc(O)n([C@@H]2O[C@H](COP(=O)(O)O)[C@@H](O)[C@H]2O)c(=O)[nH]1,Ki,[34],8.8 pM
same,Ki,[35]; PDB entry 1DQX,9 pM
same,Ki,[35]; PDB entry 1EIX,8.8 pM
same,Ki,[35]; PDB entry 1LOR,8.8 pM
O=C(O)C(=O)O,Ki,[36],24 µM
same,Ki,[37],17 µM
same,Ki,[38],280 µM
O=c1ccn([C@@H]2O[C@H](CO)[C@@H](O)[C@H]2O)c(=O)[nH]1,Ki,[39],40 µM
Nc1ncnc2c([C@@H]3N[C@H](CO)[C@@H](O)[C@H]3O)c[nH]c12,Ki,[40],0.001 µM
NCCCC[C@H](NC(=O)[C@@H](N)CCCCN)C(=O)O,Ki,[41],125 µM
O=C(NO)[C@@H](Cc1ccc2ccccc2c1)NS(=O)(=O)c1ccc2ccccc2c1,Ki,[42],0.02 µM
Oc1ccc([C@@H]2Oc3cccc(O)c3[C@@H]3CCC[C@@H]32)cc1,Ki,[43],0.00029 µM
CC[C@H]1OC(=O)[C@H](C)[C@@H](O[C@H]2C[C@@](C)(OC)[C@@H](O)[C@H](C)O2)[C@H](C)[C@@H](O[C@@H]2O[C@H](C)C[C@H](N(C)C)[C@H]2O)[C@](C)(O)C[C@@H](C)C(=O)[C@H](C)[C@@H](O)[C@]1(C)O,Ki,[44],177 µM
NCCC[C@H](N)C(=O)O,Ki,[45],1000 µM
same,Ki,[46],253 µM
O=C(Cc1cccs1)N[C@H]([Al])c1cccc(C(=O)O)c1,Ki,[47],0.017 µM
same,Ki,[48],0.578 µM
same,Ki,[49],0.064 µM
CCCCC(=O)O,Ki,[50],2000 µM
O=S(=O)(Nc1nc2cc(Cl)ccc2o1)c1cc(Cl)ccc1Cl,Ki,[51],1.1 µM
Nc1ccc(S(=O)(=O)N(Cc2ccccc2)[C@H]2CNC[C@@H]2N(Cc2ccccc2)S(=O)(=O)c2ccc(N)cc2)cc1,Ki,[52],1 µM
same,Ki,[53],0.128 µM
O[C@H]1[C@H](O)[C@@H](O)CN2CC[C@H](O)[C@H]12,Ki,[54],15 µM
N[C@@H](Cc1ccc(O)cc1)C(=O)O,Ki,[55],50 µM
Oc1c(Cl)c(Cl)c(Cl)c(Cl)c1Cl,Ki,[56],0.057 µM
